From patent US20090170766A1, “Chimeric Kunitz Domains and their Use” (BAYER HEALTHCARE AG, priority 2006, published 2009) come the findings set out here.

For one assay, the target named is human trypsin (human) (UniProt P07477).
In the next assay the target is human plasmin (Homo sapiens, UniProt P00747).

In the assay with human trypsin (human), Aprotinin (BPTI) had a Trypsin IC50 [nM], inhibition of enzymatic activity, fluorogenic substrate of 9 nM. For the same substance, in the assay with human plasmin, the Plasmin IC50 [nM], inhibition of enzymatic activity, fluorogenic substrate is 4 nM.
